# Yeast mating assay 1: variants of the scFv Ab-14

From the AlphaSeq antibody data of Engelhart et al. 2022 (doi:10.1038/s41597-022-01779-4), copy in the FLAb collection.

Antigen: PDVDLGDISGINAS, a 14-residue peptide of the SARS-CoV-2 spike HR2 region.

Ab-14 is the parent antibody, in scFv form: VH, then the linker GGGGSGGGGSGGGGS, then VL. The heavy chain is unchanged in all variants.
VH: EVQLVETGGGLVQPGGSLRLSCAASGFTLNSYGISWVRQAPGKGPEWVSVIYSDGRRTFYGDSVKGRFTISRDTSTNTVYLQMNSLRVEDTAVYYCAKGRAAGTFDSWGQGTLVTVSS
VL: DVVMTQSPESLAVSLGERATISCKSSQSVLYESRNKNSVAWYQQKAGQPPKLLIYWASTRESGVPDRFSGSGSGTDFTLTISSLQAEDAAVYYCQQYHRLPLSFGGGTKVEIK

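In library AAYL50, one, two or three CDR residues were substituted; doubles and triples were drawn at random. The scFvs were displayed on barcoded MATa yeast, the peptide on MATalpha yeast. Pairs that bind mate more often; barcode pairs of the diploids are counted by sequencing. The ratio of observed to expected reads was calibrated, replicate by replicate, on BCL2-family standards whose Kd was known from biolayer interferometry. Each pool was mated in three replicate cultures.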

Each variant is given by its three light chain CDRs, as the data file delimits them; those of the parent are KSSQSVLYESRNKNSVA, WASTRES, QQYHRLPLS.
This list gathers variants with a substitution at S38 (VL, numbered from residue 1).
Values are apparent Kd, the geometric mean of the replicates that gave a signal; lower means stronger binding.
"nd" means that the variant was in the library but no mating with the target was seen in any replicate; the authors take this as a sign of poor binding, and no number exists.
Nonspecific signal, from three strains lacking the peptide, appeared in 18% of pairings of library AAYL50, centred on 15 µM (5% of these signals below 970 nM); values are not corrected for it.

| CDR-L1 | CDR-L2 | CDR-L3 | apparent Kd | replicates with signal |
|---|---|---|---|---|
| KSSSSVLYESRNKNRVA | WASTRES | QQYHRLPLS | 520 nM | 3 of 3 |
| KSSQSVLYESRLKNFVA | WASTRES | TQYHRLPLS | nd | 0 of 3 |
| KSSQSVNYESRNKNFVA | WASTRES | QQYHRLPLS | 1.1 µM | 1 of 3 |
| KSSQSVLYESRNKNDVA | WASTRFS | QQYHRLPLF | nd | 0 of 3 |
| KFSQSVLYESRNKNMVA | WASTRES | QQYHRSPLS | 6.4 nM | 3 of 3 |
| KSSQSWLYESRNKNRVA | WASTRES | QQYHRLPLN | 780 nM | 3 of 3 |
| KSSQSVLYDSRNKNMVA | WASARES | QQYHRLPLS | 19 µM | 2 of 3 |
| KSSQSVAYESRNKNIVA | WASTRES | QQYHRLPFS | 27 µM | 2 of 3 |
| KSSQSVLYESRNINGVA | WAITRES | QQYHRLPLS | nd | 0 of 3 |
| KSSQSVLYESRNKSNVA | WASTRES | QQYHCLPLS | 15 µM | 1 of 3 |
| KSSQSVLYESRNKNVNA | WASTRES | QQYHRAPLS | nd | 0 of 3 |
| KSSQSVLPESRNKNVVA | WASTRES | QQYHQLPLS | 8.3 µM | 1 of 3 |
| KSSQSVLYESRNKNPVA | WASTRES | QQYHRLPLS | 37 nM | 3 of 3 |
| DSSTSVLYESRNKNFVA | WASTRES | QQYHRLPLS | nd | 0 of 3 |
| KQSQSVLYESRNKNRVA | WASTRES | QQYHRLPLS | 1.6 µM | 1 of 3 |
| KSSQSPLYESRNKNTVA | WAYTRES | QQYHRLPLS | 1.1 µM | 1 of 3 |
| KSSQSHLYESRNKNQYA | WASTRES | QQYHRLPLS | nd | 0 of 3 |
| KSSQSVLYESRNKNNVA | WASTRES | QQYHNWPLS | nd | 0 of 3 |
| KSSQSVLYESRNKSHVA | WASTRES | QQYHALPLS | 2.2 µM | 2 of 3 |
| KSSQSVLYESRNSNYVC | WASTRES | QQYHRLPLS | 3.2 µM | 1 of 3 |
| KSSQSVLYESRNKFNVV | WASTRES | QQYHRLPLS | nd | 0 of 3 |
| KSSQSVLYESRNKNQVA | WASTRES | QQTHWLPLS | 87 nM | 3 of 3 |
| KSSQSVLYESRNKNNVA | WASERES | QFYHRLPLS | 38 nM | 3 of 3 |
| KSSQEVLYESRNKNNFA | WASTRES | QQYHRLPLS | 1.4 µM | 3 of 3 |
| KSSQSVKYESFNKNWVA | WASTRES | QQYHRLPLS | 1.4 µM | 2 of 3 |
| KSSQSVLYESRNSNPVA | WASTRES | QQYHRLNLS | 5.7 µM | 1 of 3 |
| DSSQSVLYESRNKNKVA | WASTRES | QQYHRLPMS | nd | 0 of 3 |
| KSSQSVLSESRNKNQVA | WALTRES | QQYHRLPLS | nd | 0 of 3 |
| KSSQSVLYEWRNKNQVA | WASTRES | QQYHRLPLY | 78 µM | 2 of 3 |
| KSSQSVLYESRNKNFMA | WASTRES | QQYHRLPLS | nd | 0 of 3 |
| KSSQSVLYLSRNKNEVR | WASTRES | QQYHRLPLS | nd | 0 of 3 |
| KSSQSVLYESRNKNWVA | WASTRES | QQSHRLPSS | nd | 0 of 3 |
| KSSQSVLYESRNKNDVA | WASTREF | QQYNRLPLS | nd | 0 of 3 |
| KSSQSVLYESRNKNKQA | WASTRES | QQRHRLPLS | nd | 0 of 3 |
| KSSQSVLYESRNKNDVA | WASTRES | QQWHRLPWS | nd | 0 of 3 |
| KSSQSVLYESRNKNYVA | WASTREL | QVYHRLPLS | nd | 0 of 3 |
| KSSQRVLYESRNKNWVA | WASTRES | QQYHRLPLS | nd | 0 of 3 |
| KSSQSQLYESRNKNFVA | WASERES | QQYHRLPLS | 180 nM | 3 of 3 |
| KSSQSVLYESRNKNAVA | WASTRES | NQYHRGPLS | 93 nM | 3 of 3 |
| KSSQSVLYESRNKNHRA | AASTRES | QQYHRLPLS | 1.0 µM | 3 of 3 |
| KSSPFVLYESRNKNWVA | WASTRES | QQYHRLPLS | 27 µM | 1 of 3 |
| KSSQSGLYESRNKNYVA | WASTDES | QQYHRLPLS | nd | 0 of 3 |
| KSSQSVLYESRNKNKVA | WFSTRES | QQYHRLSLS | 40 µM | 1 of 3 |
| KSSQSALYESRNKNQVA | WASTRES | QQYHRLPLS | 170 nM | 3 of 3 |
| KSSQSVLYESRIKNKVA | WASTREG | QQYHRLPLS | 220 µM | 2 of 3 |
| KSSQSVLYEYRNKNAVA | WKSTRES | QQYHRLPLS | 34 nM | 3 of 3 |
| KSSQSVLYESRNKNRVA | WASTRWS | QQYHGLPLS | nd | 0 of 3 |
| KSSQSSLYLSRNKNGVA | WASTRES | QQYHRLPLS | 470 nM | 3 of 3 |

Repeated from above, the 4 best binders with a signal in all replicates:

{"CDR-L1": "KFSQSVLYESRNKNMVA", "CDR-L2": "WASTRES", "CDR-L3": "QQYHRSPLS", "apparent Kd": "6.4 nM", "replicates with signal": "3 of 3"}
{"CDR-L1": "KSSQSVLYEYRNKNAVA", "CDR-L2": "WKSTRES", "CDR-L3": "QQYHRLPLS", "apparent Kd": "34 nM", "replicates with signal": "3 of 3"}
{"CDR-L1": "KSSQSVLYESRNKNPVA", "CDR-L2": "WASTRES", "CDR-L3": "QQYHRLPLS", "apparent Kd": "37 nM", "replicates with signal": "3 of 3"}
{"CDR-L1": "KSSQSVLYESRNKNNVA", "CDR-L2": "WASERES", "CDR-L3": "QFYHRLPLS", "apparent Kd": "38 nM", "replicates with signal": "3 of 3"}